The experiment addresses human recombinant Btk (Homo sapiens (Human), UniProt Q06187). The experiment can be described thus: Human Recombinant Btk Enzyme Assay. It is filed as biochemical. As for the experimental part: Human Recombinant Btk Enzyme Assay
To V-bottom 384-well plates were added test compounds, human recombinant Btk (1 nM, Invitrogen Corporation), fluoresceinated peptide (1.5 μM), ATP (20 μM), and assay buffer (20 mM HEPES pH 7.4, 10 mM MgCl2, 0.015% Brij 35 surfactant and 4 mM DTT in 1.6% DMSO), with a final volume of 30 μL. After incubating at room temperature for 60 min, the reaction was terminated by adding 45 μL of 35 mM EDTA to each sample. The reaction mixture was analyzed on the Caliper LABCHIP® 3000 (Caliper, Hopkinton, Mass.) by electrophoretic separation of the fluorescent substrate and phosphorylated product. […] Compounds were dissolved at 10 mM in DMSO and evaluated at eleven concentrations.

Amino acid sequences for entries named in this document (tags omitted). A change or cut given only in a name is not applied to a line headed by its entry.
UniProt Q06187: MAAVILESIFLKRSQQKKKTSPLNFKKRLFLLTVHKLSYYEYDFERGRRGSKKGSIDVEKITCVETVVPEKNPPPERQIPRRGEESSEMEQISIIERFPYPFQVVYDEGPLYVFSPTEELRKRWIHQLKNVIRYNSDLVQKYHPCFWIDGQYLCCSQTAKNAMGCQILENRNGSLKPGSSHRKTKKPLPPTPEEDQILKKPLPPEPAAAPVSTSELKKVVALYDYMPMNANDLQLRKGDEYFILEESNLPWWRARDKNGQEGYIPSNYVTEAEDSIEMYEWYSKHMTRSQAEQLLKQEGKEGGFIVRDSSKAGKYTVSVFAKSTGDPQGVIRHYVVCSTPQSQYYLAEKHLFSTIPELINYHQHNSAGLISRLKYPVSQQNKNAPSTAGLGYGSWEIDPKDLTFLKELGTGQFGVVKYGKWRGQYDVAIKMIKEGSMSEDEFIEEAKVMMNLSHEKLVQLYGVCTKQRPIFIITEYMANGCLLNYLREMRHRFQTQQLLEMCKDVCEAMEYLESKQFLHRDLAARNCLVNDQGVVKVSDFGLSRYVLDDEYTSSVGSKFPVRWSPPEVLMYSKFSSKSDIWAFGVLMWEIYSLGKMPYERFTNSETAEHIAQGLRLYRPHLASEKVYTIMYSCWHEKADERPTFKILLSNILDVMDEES

[1] abbreviates: Table 3, ATP 20 μM, 60 min room temperature, read-out: Btk IC50 value.
Where [2] appears, read: Table 4, read-out: Example Btk IC50.
The mark [3] stands for this setting: Table 4, Comparative Example, read-out: Comparative Example Btk IC50.

Where two headings read alike, the source gives them in different places.

Broadly, the IC50 is the midpoint of a concentration-inhibition curve. As to `C=CC(=O)N1CCc2c(cccc2-c2c(F)cc(C(N)=O)c3[nH]c4c(c23)CCC(C(F)(F)F)C4)C1` (single isomer, unassigned) [Example 10, 5-(2-Acryloyl-1,2,3,4-tetrahydroisoquinolin-5-yl)-6-fluoro-2-(trifluoromethyl)-2,3,4,9-tetrahydro-1H-carbazole-8-carboxamide], the IC50 runs as follows: under setting [1], 0.3 nM; under setting [2], 0.3 nM. For the compound `C=CC(=O)N1CCc2c(cccc2-c2c(Cl)cc(C(N)=O)c3[nH]c4ccccc4c23)C1` [Example 30], under setting [1], the IC50 was found to be 0.3 nM.

Take `C=CC(=O)N1CCc2c(cccc2-c2c(F)cc(C(N)=O)c3[nH]c4c(c23)CCC(C(F)(F)F)C4)C1` (single isomer, unassigned) [Example 11, 5-(2-Acryloyl-1,2,3,4-tetrahydroisoquinolin-5-yl)-6-fluoro-2-(trifluoromethyl)-2,3,4,9-tetrahydro-1H-carbazole-8-carboxamide]: the IC50 runs as follows: under setting [1], 0.13 nM; under setting [2], 0.13 nM. As to `C=CC(=O)N1CCc2c(cccc2-c2c(F)cc(C(N)=O)c3[nH]c4cc(CCF)ccc4c23)C1` (racemic) [Example 26, 4-(2-acryloyl-1,2,3,4-tetrahydroisoquinolin-5-yl)-3-fluoro-7-(2-fluoroethyl)-9H-carbazole-1-carboxamide], the IC50 under setting [1] came to 0.029 nM. Take `C=CC(=O)N1CCc2c(cccc2-c2c(F)cc(C(N)=O)c3[nH]c4c(c23)CCC(C(F)(F)F)C4)C1` (single isomer, unassigned) [Comparative Example 20, 5-(2-Acryloyl-1,2,3,4-tetrahydroisoquinolin-5-yl)-6-fluoro-2-(trifluoromethyl)-2,3,4,9-tetrahydro-1H-carbazole-8-carboxamide]: under setting [3], the IC50 came to 27 nM. As for `C=CC(=O)N1CCc2c(cccc2-c2c(F)cc(C(N)=O)c3[nH]c4c(c23)CCC(C(F)(F)F)C4)C1` (single isomer, unassigned) [Comparative Example 21, 5-(2-Acryloyl-1,2,3,4-tetrahydroisoquinolin-5-yl)-6-fluoro-2-(trifluoromethyl)-2,3,4,9-tetrahydro-1H-carbazole-8-carboxamide], the IC50 under setting [3] was found to be 3 nM.

The record behind these values is US10023534B2 (BRISTOL-MYERS SQUIBB COMPANY, priority 2014, dated 2018).
